Reference: BindingDB's records for 10753470

Biological target: Kappa-type opioid receptor (Homo sapiens, UniProt P41145)
Test: Competitive binding displacement analyses was performed from permanently transfected HEK293 cells expressing Opioid receptor kappa 1

## O=C1NCN(c2ccccc2)C12CCN(C1Cc3cccc4cccc1c34)CC2 (stereo unspecified)
  Ki: 26 nM
